The values below come from patent US20050013875A1, “Immunopotentiators in thermotherapy for cancer” (priority 2001, published 2005).

The nature of the data set: Body weight change of rats under hyperthermia. Type of data set: in vivo, rat. The note with it: (GGA+AMF) Group: MCL and GGA administered, three magnetic field irradiations; control with neither MCL nor GGA and no irradiation; FIG. 4. As for the experimental part:
As experimental individuals, F344 rats (female, 7 to 8-weeks old) were used. MFH cells 1×10^7 cultured on Petri dish for cell-cultivation were dispersed in about 50 μl of a physiologically buffered saline, and then, the cells suspension was transplanted subcutaneously to a right leg of an experimental individual by using a scalp vein needle (25G×5/8″) (Terumo Corporation) to make a cancer-carried experimental individual. Nembutal (available from Dainippon Pharmaceutical Co., Ltd.) was used for anesthesia, and that diluted to five times (50 mg/kg body weight) was administered to abdominal cavity.
Under anesthesia of a rat, MCL with a concentration of 7.5 mg/ml and 3.3 mg of net weight magnetite was administered to the tumor tissue of the rat 10 days after transplantation of the MFH cells over 30 minutes by using a microsyringe pump (SP100i syringe pump, manufactured by WPI Co.), and thereafter, the rat was allowed to stand for 30 minutes. Magnetic field irradiation was carried out after 24 hours from injection of the MCL.
To 500 mg of Gum Arabic powder was adhered 1 g of GGA, 0.5% of Tween 80 solution was gradually added to the above mixture, to emulsify the mixture under stirring, and a final volume thereof was adjusted to 10 ml. […]

Take geranylgeranyl acetone [GGA]: the “body weight change compared with Control Group” value was “substantially the same”.
